Data reported in US20150267232A1, “IN VIVO AND IN VITRO CARBENE INSERTION AND NITRENE TRANSFER REACTIONS CATALYZED BY HEME ENZYMES” (California Institute of Technology, priority 2012, published 2015).

Chains of the proteins cited; added tags and fusions are not shown. Residues count along the entry.
UniProt P14779, 2-1049 with the stated changes: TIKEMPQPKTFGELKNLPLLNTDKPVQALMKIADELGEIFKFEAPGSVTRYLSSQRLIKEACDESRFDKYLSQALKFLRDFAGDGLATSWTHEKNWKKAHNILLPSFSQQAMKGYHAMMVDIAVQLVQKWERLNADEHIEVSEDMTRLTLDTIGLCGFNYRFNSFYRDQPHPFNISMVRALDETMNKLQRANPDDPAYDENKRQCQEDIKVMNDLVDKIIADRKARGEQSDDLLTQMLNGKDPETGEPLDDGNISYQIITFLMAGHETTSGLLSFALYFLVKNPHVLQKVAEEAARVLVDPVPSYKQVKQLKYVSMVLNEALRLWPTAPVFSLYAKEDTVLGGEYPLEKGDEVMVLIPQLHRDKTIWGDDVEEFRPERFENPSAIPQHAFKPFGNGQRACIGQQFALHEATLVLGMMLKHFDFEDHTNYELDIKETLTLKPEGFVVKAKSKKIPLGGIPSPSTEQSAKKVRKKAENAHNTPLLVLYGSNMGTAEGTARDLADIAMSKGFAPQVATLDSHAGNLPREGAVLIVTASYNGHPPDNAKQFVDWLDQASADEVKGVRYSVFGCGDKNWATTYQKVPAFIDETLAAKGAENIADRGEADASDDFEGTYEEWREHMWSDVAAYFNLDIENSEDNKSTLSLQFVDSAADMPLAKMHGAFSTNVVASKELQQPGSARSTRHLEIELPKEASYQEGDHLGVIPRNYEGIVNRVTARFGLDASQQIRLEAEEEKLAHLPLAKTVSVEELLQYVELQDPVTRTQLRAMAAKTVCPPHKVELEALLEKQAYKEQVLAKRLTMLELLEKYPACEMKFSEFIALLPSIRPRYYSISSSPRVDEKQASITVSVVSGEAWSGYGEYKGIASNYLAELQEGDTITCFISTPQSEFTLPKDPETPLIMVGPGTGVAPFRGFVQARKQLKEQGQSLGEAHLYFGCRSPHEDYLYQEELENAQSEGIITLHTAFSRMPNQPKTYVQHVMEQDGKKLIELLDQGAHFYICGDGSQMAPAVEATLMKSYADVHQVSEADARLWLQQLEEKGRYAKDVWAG

Biological target: B1SYN (Priestia megaterium, UniProt P14779, A185T/A291V/A331V/E253G/F206C/F88A/G316S/H237Q/I175N/I264M/L354V/N71Y/P143S/R256S/R48S/S227R/T176I/V79L)
Assay: biochemical

With CC(C)c1ccc(C(C)C)c(S(=O)(=O)N=[N+]=[N-])c1 [azide 5, 2,5-diisopropylbenzenesulfonyl azide] the Kd was 1500 nM.
